What is called Kd is the free concentration of one partner at which half of the binding sites on the other are occupied at equilibrium, for simple one-to-one binding. Read a high Kd as weaker binding. As usually defined, the koff is the first-order rate constant of dissociation.

By UniProt entry, the sequences of proteins in these tests, tags left out. Residues count along the entry.
UniProt Q9NZC2, 19-174: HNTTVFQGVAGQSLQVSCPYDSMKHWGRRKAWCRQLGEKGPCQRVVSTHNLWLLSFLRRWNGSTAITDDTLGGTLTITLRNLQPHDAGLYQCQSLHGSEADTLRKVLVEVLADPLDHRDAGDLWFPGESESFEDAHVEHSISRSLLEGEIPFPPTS

Data on two substances can be found in publication PMC6220267.

Test [1] addresses T1, soluble mouse Trem1‐Fc (soluble ectodomain) (mouse) (UniProt Q9JKE2).
T1 sequence: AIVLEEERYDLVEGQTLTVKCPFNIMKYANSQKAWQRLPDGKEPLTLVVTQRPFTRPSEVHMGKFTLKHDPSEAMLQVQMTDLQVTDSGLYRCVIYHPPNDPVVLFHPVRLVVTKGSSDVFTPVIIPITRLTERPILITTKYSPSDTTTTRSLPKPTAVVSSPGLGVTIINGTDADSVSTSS
The test can be described thus: BLI. To be noted: chains peptide; remark: other sources report otherwise.

In test [2] the target is soluble TREM2‐Fc (soluble ectodomain of human TREM2 fused to the Fc domain of human IgG4, V5 epitope) (human) (UniProt Q9NZC2). In words: BLI; optimized assay: Protein A sensors loaded to near-saturation with soluble TREM‐Fc‐V5 proteins in PBS; ligand in serial dilution (five concentrations); dissociation in PBS; 1:1 interaction model. On the technique in general: Biolayer interferometry detects binding as a change in optical thickness at a sensor tip.

In test [1], “Aβ42 oligomers (soluble) (from UniProt P05067 672-713)” returned a Kd of 1 pM and a koff of 1e-07 s⁻¹.

In test [2], “Aβ42 oligomers (soluble) (from UniProt P05067 672-713) (peptide)” returned an equilibrium dissociation constant (Kd) of less than 1 pM and an off-rate (koff) of 1e-07 s⁻¹.
